Measured values: patent publication US20140228384A1, “ASSAYS AND BIOMARKERS FOR LRRK2” (Genentech, Inc., priority 2011, published 2014)
Where two headings read alike, the source gives them in different places.

Protein sequences, listed by entry. Tags and fused reporters are not part of them.
UniProt Q5S007, whole entry R1441G/Y1699C/G2019S: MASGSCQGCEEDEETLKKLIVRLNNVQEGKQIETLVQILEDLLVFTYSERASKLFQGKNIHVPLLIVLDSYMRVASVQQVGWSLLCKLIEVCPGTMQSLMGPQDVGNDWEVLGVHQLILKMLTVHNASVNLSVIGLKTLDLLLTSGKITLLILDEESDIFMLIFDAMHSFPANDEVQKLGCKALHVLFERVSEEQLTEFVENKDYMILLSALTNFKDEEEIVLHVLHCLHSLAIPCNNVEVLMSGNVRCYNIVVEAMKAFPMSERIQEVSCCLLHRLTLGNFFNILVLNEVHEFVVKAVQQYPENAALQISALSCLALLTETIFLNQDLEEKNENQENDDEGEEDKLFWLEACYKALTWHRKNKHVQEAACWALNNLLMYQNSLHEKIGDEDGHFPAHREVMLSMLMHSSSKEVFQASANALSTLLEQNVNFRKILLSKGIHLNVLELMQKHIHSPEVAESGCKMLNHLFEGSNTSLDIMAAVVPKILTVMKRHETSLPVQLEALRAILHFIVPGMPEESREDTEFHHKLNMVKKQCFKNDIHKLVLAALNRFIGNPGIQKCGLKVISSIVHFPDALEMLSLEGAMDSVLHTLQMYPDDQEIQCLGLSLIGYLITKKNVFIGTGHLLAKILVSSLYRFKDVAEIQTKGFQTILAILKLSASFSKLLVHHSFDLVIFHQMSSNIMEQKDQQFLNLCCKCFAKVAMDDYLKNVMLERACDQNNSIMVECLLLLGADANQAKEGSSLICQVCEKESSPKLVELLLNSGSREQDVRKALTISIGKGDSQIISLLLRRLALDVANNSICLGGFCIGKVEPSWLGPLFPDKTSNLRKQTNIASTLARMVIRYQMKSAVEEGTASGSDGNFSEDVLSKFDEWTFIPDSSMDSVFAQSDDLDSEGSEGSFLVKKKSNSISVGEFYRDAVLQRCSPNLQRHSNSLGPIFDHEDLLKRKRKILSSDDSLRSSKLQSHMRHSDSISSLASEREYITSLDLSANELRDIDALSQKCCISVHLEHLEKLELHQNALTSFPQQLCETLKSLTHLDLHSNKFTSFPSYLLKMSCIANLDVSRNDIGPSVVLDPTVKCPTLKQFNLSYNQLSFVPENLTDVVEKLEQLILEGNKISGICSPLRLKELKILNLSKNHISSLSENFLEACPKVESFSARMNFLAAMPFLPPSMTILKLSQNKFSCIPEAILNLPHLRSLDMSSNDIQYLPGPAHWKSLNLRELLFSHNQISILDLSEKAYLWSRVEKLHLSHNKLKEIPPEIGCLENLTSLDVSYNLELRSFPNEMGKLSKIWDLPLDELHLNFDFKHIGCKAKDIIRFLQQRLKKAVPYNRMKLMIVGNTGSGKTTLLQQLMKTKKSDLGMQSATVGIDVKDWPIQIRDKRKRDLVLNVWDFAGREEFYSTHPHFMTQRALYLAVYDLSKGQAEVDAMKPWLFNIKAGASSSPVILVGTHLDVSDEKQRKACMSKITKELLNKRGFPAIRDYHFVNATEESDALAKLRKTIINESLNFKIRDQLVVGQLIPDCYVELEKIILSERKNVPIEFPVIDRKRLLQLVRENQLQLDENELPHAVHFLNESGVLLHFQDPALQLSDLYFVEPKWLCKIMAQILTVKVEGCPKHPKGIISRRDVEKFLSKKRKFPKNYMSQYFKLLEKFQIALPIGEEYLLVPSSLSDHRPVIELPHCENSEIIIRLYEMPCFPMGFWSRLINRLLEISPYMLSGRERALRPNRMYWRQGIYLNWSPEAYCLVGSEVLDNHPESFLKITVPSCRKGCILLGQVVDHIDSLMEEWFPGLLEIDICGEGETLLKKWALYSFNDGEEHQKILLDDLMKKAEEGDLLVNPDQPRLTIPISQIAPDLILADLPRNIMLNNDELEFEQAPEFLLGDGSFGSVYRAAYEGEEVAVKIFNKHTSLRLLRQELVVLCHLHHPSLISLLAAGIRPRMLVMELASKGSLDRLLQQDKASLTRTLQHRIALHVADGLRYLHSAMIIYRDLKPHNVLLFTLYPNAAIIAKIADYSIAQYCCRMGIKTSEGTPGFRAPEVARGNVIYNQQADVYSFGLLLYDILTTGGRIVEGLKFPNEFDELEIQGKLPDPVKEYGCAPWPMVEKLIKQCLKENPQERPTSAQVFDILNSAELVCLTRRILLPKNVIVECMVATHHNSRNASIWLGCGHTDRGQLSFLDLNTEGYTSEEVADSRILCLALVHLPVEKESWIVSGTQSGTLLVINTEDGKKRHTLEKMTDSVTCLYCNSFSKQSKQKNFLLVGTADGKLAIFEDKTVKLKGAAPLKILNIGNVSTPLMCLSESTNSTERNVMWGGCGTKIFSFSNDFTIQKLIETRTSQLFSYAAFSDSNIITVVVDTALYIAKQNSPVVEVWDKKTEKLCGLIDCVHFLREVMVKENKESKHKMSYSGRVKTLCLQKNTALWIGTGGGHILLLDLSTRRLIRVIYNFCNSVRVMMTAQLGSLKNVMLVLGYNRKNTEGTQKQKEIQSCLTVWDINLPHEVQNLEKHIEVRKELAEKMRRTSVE

Experiments:
[1] = target: T1, LRRK2 R1441G/Y1699C/G2019S triple mutant protein (pS1292 autophosphorylation) in inducible HEK293 cells (Homo sapiens, UniProt Q5S007, G2019S/R1441G/Y1699C); settings: doxycycline-induced LRRK2 cells
[2] = target: T1, LRRK2 R1441G/Y1699C/G2019S triple mutant protein (pS1292 autophosphorylation) in inducible HEK293 cells; experiment: cell-based

IC50 [2]	IC50 ([2]; observed cellular IC50 (pLRRK2 levels), LRRK2 cell-based assay (text, FIG. 7B))	SMILES	reduction of pS1292 / pLRRK2 signal in cells [1]
1.6 nM	10 nM	CNc1nc(Nc2ccc(C(=O)N3CCOCC3)cc2OC)ncc1C(F)(F)F [G1023, [3-methoxy-4-(4-methylamino-5-trifluoromethyl-pyrimidin-2-ylamino)-phenyl]-morpholin-4-yl-methanone]	efficiently reduced pLRRK2 levels in a dose-dependent manner
–	–	CCN(CC)CCNC(=O)c1c(C)[nH]c(/C=C2\C(=O)Nc3ccc(F)cc32)c1C [Sutent, reference compound]	dose-dependent reduction of pS1292 signal
